Assay [1] deals with T1, Phosphatidylinositol 4,5-bisphosphate 3-kinase catalytic subunit delta isoform (Homo sapiens, UniProt O00329).
T1 sequence (O00329 whole entry): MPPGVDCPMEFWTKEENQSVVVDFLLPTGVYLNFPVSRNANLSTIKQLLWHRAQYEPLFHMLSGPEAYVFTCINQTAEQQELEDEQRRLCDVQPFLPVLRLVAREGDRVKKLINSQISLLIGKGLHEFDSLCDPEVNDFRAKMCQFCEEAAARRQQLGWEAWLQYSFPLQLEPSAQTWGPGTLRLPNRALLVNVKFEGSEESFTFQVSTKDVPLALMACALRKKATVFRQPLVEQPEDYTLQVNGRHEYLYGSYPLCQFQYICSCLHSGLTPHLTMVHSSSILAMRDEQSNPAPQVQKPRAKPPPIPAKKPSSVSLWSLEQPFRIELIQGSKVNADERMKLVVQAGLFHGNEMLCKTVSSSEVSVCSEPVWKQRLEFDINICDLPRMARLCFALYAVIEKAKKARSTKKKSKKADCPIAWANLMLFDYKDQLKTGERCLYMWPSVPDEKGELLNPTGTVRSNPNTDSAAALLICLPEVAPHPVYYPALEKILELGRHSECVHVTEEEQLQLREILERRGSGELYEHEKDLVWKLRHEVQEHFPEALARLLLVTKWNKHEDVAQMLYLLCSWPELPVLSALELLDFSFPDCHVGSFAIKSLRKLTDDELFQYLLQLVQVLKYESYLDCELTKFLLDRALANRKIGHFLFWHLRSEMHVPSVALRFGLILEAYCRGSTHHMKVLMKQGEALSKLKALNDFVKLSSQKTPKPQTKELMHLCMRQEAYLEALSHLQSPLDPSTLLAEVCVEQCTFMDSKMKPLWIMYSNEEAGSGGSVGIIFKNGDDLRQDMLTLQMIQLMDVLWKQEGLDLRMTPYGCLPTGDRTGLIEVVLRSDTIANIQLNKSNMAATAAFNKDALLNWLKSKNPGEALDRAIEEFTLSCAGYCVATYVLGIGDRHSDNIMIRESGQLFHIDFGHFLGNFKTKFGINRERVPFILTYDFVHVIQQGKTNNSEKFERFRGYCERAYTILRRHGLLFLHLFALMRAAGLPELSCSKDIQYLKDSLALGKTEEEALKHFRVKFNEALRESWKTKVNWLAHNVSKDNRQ

Chains of the proteins cited; added tags and fusions are not shown. Lines headed by an entry give the natural chain unless they say otherwise; changes in a name come on top.
UniProt P48736: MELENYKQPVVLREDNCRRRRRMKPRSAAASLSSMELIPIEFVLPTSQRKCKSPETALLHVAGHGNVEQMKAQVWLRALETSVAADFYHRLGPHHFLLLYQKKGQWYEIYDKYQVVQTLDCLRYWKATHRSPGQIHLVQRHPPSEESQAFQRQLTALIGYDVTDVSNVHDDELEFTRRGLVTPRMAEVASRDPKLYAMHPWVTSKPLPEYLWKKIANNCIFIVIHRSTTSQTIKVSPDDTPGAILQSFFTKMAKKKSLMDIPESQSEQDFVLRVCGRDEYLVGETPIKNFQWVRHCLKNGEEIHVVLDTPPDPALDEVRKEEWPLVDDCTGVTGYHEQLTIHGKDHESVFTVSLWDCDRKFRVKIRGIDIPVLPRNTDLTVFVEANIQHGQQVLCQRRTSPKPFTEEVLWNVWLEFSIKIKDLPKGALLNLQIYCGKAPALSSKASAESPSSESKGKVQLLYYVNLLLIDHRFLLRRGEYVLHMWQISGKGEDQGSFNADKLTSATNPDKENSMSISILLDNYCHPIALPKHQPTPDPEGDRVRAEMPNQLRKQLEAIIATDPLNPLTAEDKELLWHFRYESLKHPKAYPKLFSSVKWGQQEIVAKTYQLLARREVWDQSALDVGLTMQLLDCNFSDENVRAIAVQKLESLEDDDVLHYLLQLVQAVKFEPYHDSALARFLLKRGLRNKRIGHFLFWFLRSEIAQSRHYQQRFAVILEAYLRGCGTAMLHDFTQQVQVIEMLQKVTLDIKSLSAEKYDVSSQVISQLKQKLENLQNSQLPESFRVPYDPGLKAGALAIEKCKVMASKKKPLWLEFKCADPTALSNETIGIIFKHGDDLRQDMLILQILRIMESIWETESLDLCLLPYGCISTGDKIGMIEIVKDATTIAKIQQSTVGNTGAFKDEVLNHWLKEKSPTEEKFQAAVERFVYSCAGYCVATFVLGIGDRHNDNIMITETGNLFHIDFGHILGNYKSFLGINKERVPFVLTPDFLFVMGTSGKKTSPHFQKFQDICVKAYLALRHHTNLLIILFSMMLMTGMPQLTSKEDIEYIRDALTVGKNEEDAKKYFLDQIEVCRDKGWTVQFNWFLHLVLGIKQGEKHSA

The target in assay [2] is Phosphatidylinositol 4,5-bisphosphate 3-kinase catalytic subunit gamma isoform (Homo sapiens, UniProt P48736).

Molecules are shown by their SMILES.

On to `Nc1nc2cc(-c3cn(C4CCOCC4)c4ncnc(N)c34)ccc2o1`, for which the IC50 in assay [1] and in assay [2] was < 1000 nM throughout. With `CC(C)n1nc(-c2ccc3c(NC4CC4)noc3c2)c2c(N)ncnc21`, the IC50 in assay [2] was < 1000 nM. Consider `Nc1ncnc2c1c(-c1cc3cc(O)ccc3[nH]1)nn2C1CCCC1`, for which, in assay [2], the half-maximal inhibitory concentration (IC50) is < 500 nM.

Values taken from ChEMBL document CHEMBL5726097, “Combination pharmaceutical compositions and uses thereof” (2019).
